This passage reports inhibition results from PubChem BioAssay AID652008 (The Scripps Research Institute Molecular Screening Center, 2013).

Amino acid sequences for entries named in this document (tags omitted). A change or cut given only in a name is not applied to a line headed by its entry.
UniProt Q15596: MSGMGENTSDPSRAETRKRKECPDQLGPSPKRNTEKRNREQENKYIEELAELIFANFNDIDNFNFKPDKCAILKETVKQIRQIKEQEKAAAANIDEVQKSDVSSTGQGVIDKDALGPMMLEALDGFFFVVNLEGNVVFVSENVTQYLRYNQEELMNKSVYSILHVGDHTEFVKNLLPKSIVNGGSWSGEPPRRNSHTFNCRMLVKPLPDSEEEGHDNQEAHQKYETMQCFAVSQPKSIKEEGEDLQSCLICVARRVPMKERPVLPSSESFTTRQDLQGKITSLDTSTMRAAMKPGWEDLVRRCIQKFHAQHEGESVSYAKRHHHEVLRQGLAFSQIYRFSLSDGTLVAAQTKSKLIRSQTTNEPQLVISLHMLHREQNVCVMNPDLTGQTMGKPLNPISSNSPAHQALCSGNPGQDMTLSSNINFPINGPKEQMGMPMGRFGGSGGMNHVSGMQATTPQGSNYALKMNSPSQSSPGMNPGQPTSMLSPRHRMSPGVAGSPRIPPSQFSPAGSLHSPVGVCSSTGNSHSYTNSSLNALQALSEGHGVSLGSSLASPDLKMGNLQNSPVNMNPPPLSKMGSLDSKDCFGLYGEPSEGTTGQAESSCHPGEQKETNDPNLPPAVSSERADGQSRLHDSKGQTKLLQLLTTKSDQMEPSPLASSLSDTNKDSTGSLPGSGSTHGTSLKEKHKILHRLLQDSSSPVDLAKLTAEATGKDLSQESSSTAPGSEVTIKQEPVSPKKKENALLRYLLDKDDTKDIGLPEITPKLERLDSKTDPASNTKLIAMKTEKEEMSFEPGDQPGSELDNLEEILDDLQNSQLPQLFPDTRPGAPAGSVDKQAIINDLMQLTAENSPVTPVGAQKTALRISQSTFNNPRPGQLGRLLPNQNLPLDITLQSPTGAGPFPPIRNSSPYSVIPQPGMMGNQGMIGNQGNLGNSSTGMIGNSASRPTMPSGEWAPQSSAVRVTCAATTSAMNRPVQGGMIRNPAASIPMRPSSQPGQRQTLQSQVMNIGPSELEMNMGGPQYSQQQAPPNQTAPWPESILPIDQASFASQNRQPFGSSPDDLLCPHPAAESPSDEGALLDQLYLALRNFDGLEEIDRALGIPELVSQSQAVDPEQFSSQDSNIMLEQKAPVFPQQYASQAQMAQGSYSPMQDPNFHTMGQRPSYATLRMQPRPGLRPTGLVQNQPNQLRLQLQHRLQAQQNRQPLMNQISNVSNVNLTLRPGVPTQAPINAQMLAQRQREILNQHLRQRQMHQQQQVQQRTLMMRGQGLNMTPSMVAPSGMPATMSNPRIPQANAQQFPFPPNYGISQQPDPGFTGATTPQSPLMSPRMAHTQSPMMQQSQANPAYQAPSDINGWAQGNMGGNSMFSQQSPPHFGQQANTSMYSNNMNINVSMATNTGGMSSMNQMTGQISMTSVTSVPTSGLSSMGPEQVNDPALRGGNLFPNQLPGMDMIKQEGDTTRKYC

Molecules are shown by their SMILES. Only a part is listed here, and it is no random draw. Active and inactive are the calls of the source.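 How the source made its calls: active means mean inhibition above 46.5%, the solvent-only control mean plus 3 SD; inactive means the rest.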

The assay has as its target Nuclear receptor coactivator 2 (Homo sapiens) (UniProt Q15596). Briefly: SRC2 coactivator transcriptional activity inhibitors, confirmation, cell-based, luminescence, HEK293, triplicate (AID 652008).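 Further: 0% = DMSO-treated cells and 100% = Gossypol at 36 µM.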 To be noted: HEK293 GAL4-SRC2 luciferase reporter, at 8.9 µM, hits give high values. A general note: In a reporter assay the amount or activity of a reporter protein is the signal.
As for `C[N+]1=C2C=CC=CC=C2SC12C([N+](=O)[O-])=CC([N+](=O)[O-])=C[C-]2[N+](=O)[O-]` (stereo unspecified), the inhibition (as a rule, the drop in the measured response relative to a control, in per cent) is active: 99%.
